“And” between values parts separate entries of the source, which are not always exact repeats. Identical values can stand only once.
Experiment: Pharmacokinetic Study on Silodosin (Study US011), once daily for seven days, fed state
Conditions: 8 mg once daily 7 days

## C[C@H](Cc1cc2c(c(C(N)=O)c1)N(CCCO)CC2)NCCOc1ccccc1OCC(F)(F)F [Silodosin]
Day 7, 0 h (t0), mean
  Blood Plasma Concentrations: 5.56 ng/mL
Day 7, 0.25 h, individual subjects
  Blood Plasma Concentrations: 2.00 ng/mL and 9.25 ng/mL and 3.64 ng/mL and 13.11 ng/mL and 7.98 ng/mL and 1.60 ng/mL and 9.65 ng/mL and 2.44 ng/mL
Day 7, 0.5 h, individual subjects
  Blood Plasma Concentrations: 2.01 ng/mL and 40.90 ng/mL and 21.98 ng/mL and 5.69 ng/mL and 16.93 ng/mL and 56.28 ng/mL and 11.63 ng/mL and 14.52 ng/mL and 25.23 ng/mL
Day 7, 0.5 h, mean
  Blood Plasma Concentrations: 21.69 ng/mL
Day 7, 1 h, individual subjects
  Blood Plasma Concentrations: 12.58 ng/mL and 46.27 ng/mL and 62.96 ng/mL and 26.49 ng/mL and 113.90 ng/mL and 103.20 ng/mL and 41.51 ng/mL and 24.58 ng/mL and 72.25 ng/mL
Day 7, 1 h, mean
  Blood Plasma Concentrations: 55.97 ng/mL
Day 7, 1.5 h, individual subjects
  Blood Plasma Concentrations: 35.49 ng/mL and 39.01 ng/mL and 55.57 ng/mL and 63.87 ng/mL and 129.20 ng/mL and 127.00 ng/mL and 65.51 ng/mL and 32.58 ng/mL and 63.27 ng/mL
Day 7, 1.5 h, mean
  Blood Plasma Concentrations: 67.94 ng/mL
Day 7, 2 h, individual subjects
  Blood Plasma Concentrations: 42.13 ng/mL and 30.68 ng/mL and 62.78 ng/mL and 62.92 ng/mL and 106.10 ng/mL and 113.80 ng/mL and 54.34 ng/mL and 45.40 ng/mL and 56.03 ng/mL
Day 7, 2 h, mean
  Blood Plasma Concentrations: 63.80 ng/mL
Day 7, 3 h, individual subjects
  Blood Plasma Concentrations: 35.86 ng/mL and 17.49 ng/mL and 47.15 ng/mL and 53.17 ng/mL and 88.84 ng/mL and 61.25 ng/mL and 52.40 ng/mL and 51.86 ng/mL and 33.38 ng/mL
Day 7, 3 h, mean
  Blood Plasma Concentrations: 49.04 ng/mL
Day 7, 4 h, individual subjects
  Blood Plasma Concentrations: 17.49 ng/mL and 10.60 ng/mL and 30.50 ng/mL and 36.46 ng/mL and 72.43 ng/mL and 50.08 ng/mL and 30.19 ng/mL and 35.37 ng/mL and 15.51 ng/mL
Day 7, 6 h, individual subjects
  Blood Plasma Concentrations: 10.20 ng/mL and 8.31 ng/mL and 11.39 ng/mL and 19.22 ng/mL and 57.30 ng/mL and 20.36 ng/mL and 11.08 ng/mL and 18.88 ng/mL and 9.47 ng/mL
Day 7, 8 h, individual subjects
  Blood Plasma Concentrations: 9.68 ng/mL and 7.43 ng/mL and 9.77 ng/mL and 14.50 ng/mL and 42.35 ng/mL and 16.57 ng/mL and 8.40 ng/mL and 15.18 ng/mL and 7.79 ng/mL
Day 7, 8 h, mean
  Blood Plasma Concentrations: 14.63 ng/mL
Day 7, 16 h, individual subjects
  Blood Plasma Concentrations: 2.74 ng/mL and 3.93 ng/mL and 4.72 ng/mL and 5.28 ng/mL and 14.85 ng/mL and 12.73 ng/mL and 3.81 ng/mL and 6.12 ng/mL and 2.33 ng/mL
Day 7, 16 h, mean
  Blood Plasma Concentrations: 6.28 ng/mL
Day 7, 24 h, individual subjects
  Blood Plasma Concentrations: 1.91 ng/mL and 3.91 ng/mL and 3.88 ng/mL and 4.38 ng/mL and 11.65 ng/mL and 9.92 ng/mL and 3.42 ng/mL and 6.89 ng/mL and 1.72 ng/mL
Day 7, 24 h, mean
  Blood Plasma Concentrations: 5.30 ng/mL
Time 0.0 h (Day 1), individual subjects
  Blood Plasma Concentrations: 0.00 ng/mL
Time 0.0 h (Day 1), mean
  Blood Plasma Concentrations: 0.00 ng/mL
Time 0.3 h, individual subjects
  Blood Plasma Concentrations: 2.27 ng/ml and 0.00 ng/ml (7×) and 1.47 ng/ml
Time 0.3 h, mean
  Blood Plasma Concentrations: 0.42 ng/mL
Time 0.5 h, individual subjects
  Blood Plasma Concentrations: 28.23 ng/mL and 8.54 ng/mL and 5.00 ng/mL and 5.01 ng/mL and 6.16 ng/mL and 1.71 ng/mL and 51.16 ng/mL and 13.85 ng/mL and 0.00 ng/mL
Time 0.5 h, mean
  Blood Plasma Concentrations: 13.30 ng/mL
Time 1.0 h, individual subjects
  Blood Plasma Concentrations: 65.47 ng/mL and 19.61 ng/mL and 43.31 ng/mL and 57.51 ng/mL and 55.35 ng/mL and 32.22 ng/mL and 83.89 ng/mL and 42.13 ng/mL and 9.29 ng/mL
Time 1.0 h, mean
  Blood Plasma Concentrations: 45.42 ng/mL
Time 1.5 h, individual subjects
  Blood Plasma Concentrations: 64.19 ng/mL and 32.61 ng/mL and 70.27 ng/mL and 44.48 ng/mL and 65.65 ng/mL and 60.05 ng/mL and 101.60 ng/mL and 44.81 ng/mL and 44.23 ng/mL
Time 1.5 h, mean
  Blood Plasma Concentrations: 58.65 ng/mL
Time 2.0 h, individual subjects
  Blood Plasma Concentrations: 54.56 ng/mL and 37.94 ng/mL and 59.01 ng/mL and 28.65 ng/mL and 66.47 ng/mL and 73.38 ng/mL and 83.90 ng/mL and 32.81 ng/mL and 54.51 ng/mL
Time 3.0 h, individual subjects
  Blood Plasma Concentrations: 25.30 ng/mL and 62.68 ng/mL and 26.08 ng/mL and 23.58 ng/mL and 57.85 ng/mL and 58.16 ng/mL and 50.53 ng/mL and 16.72 ng/mL and 63.97 ng/mL
Time 4.0 h, individual subjects
  Blood Plasma Concentrations: 17.15 ng/mL and 15.01 ng/mL and 13.52 ng/mL and 17.81 ng/mL and 40.28 ng/mL and 50.39 ng/mL and 29.05 ng/mL and 11.26 ng/mL and 47.45 ng/mL
Time 4.0 h, mean
  Blood Plasma Concentrations: 26.88 ng/mL
Time 6.0 h, individual subjects
  Blood Plasma Concentrations: 9.28 ng/mL and 5.62 ng/mL and 7.97 ng/mL and 9.94 ng/mL and 21.95 ng/mL and 25.09 ng/mL and 15.44 ng/mL and 5.48 ng/mL and 36.53 ng/mL
Time 6.0 h, mean
  Blood Plasma Concentrations: 15.26 ng/mL
Time 8.0 h, individual subjects
  Blood Plasma Concentrations: 7.74 ng/mL and 4.39 ng/mL and 6.60 ng/mL and 6.78 ng/mL and 16.78 ng/mL and 20.37 ng/mL and 9.54 ng/mL and 3.51 ng/mL and 24.21 ng/mL
Time 8.0 h, mean
  Blood Plasma Concentrations: 11.10 ng/mL
Time 12.0 h, individual subjects
  Blood Plasma Concentrations: 3.94 ng/mL and 2.67 ng/mL and 4.38 ng/mL and 5.42 ng/mL and 8.57 ng/mL and 16.07 ng/mL and 4.83 ng/mL and 1.60 ng/mL and 13.24 ng/mL
Time 12.0 h, mean
  Blood Plasma Concentrations: 6.75 ng/mL
Time 16.0 h, individual subjects
  Blood Plasma Concentrations: 2.79 ng/mL and 1.66 ng/mL and 2.94 ng/mL and 3.19 ng/mL and 5.41 ng/mL and 12.17 ng/mL and 4.20 ng/mL and 0.95 ng/mL and 9.18 ng/mL
Time 16.0 h, mean
  Blood Plasma Concentrations: 4.72 ng/mL
Time 24.0 h, individual subjects
  Blood Plasma Concentrations: 1.27 ng/mL and 1.72 ng/mL and 2.80 ng/mL and 2.39 ng/mL and 4.27 ng/mL and 9.38 ng/mL and 3.48 ng/mL and 0.56 ng/mL and 6.96 ng/mL
Time 24.0 h, mean
  Blood Plasma Concentrations: 3.65 ng/mL
Time 48.0 h, individual subjects
  Blood Plasma Concentrations: 1.72 ng/mL and 2.20 ng/mL and 3.37 ng/mL and 3.35 ng/mL and 2.67 ng/mL and 12.14 ng/mL and 2.71 ng/mL and 1.07 ng/mL and 8.23 ng/mL
Time 48.0 h, mean
  Blood Plasma Concentrations: 4.16 ng/mL
Time 72.0 h, individual subjects
  Blood Plasma Concentrations: 3.12 ng/mL and 5.69 ng/mL and 2.58 ng/mL and 3.03 ng/mL and 3.72 ng/mL and 3.84 ng/mL and 3.39 ng/mL and 11.41 ng/mL and 7.41 ng/mL
Time 72.0 h, mean
  Blood Plasma Concentrations: 4.91 ng/mL
Time 96.0 h, individual subjects
  Blood Plasma Concentrations: 3.55 ng/mL and 8.26 ng/mL and 2.86 ng/mL and 1.92 ng/mL and 3.32 ng/mL and 3.43 ng/mL and 3.78 ng/mL and 11.18 ng/mL and 4.50 ng/mL
Time 96.0 h, mean
  Blood Plasma Concentrations: 4.76 ng/mL
Time 120.0 h, individual subjects
  Blood Plasma Concentrations: 1.75 ng/mL and 8.32 ng/mL and 2.44 ng/mL and 2.09 ng/mL and 3.42 ng/mL and 4.47 ng/mL and 4.71 ng/mL and 12.89 ng/mL and 6.05 ng/mL
Time 120.0 h, mean
  Blood Plasma Concentrations: 5.13 ng/mL
Time 144.0 h (Day 7), individual subjects
  Blood Plasma Concentrations: 1.95 ng/mL and 6.99 ng/mL and 2.40 ng/mL and 1.90 ng/mL and 4.15 ng/mL and 3.94 ng/mL and 4.87 ng/mL and 15.77 ng/mL and 8.04 ng/mL
Time 144.0 h (Day 7), mean
  Blood Plasma Concentrations: 5.56 ng/mL
Time 144.3 h, individual subjects
  Blood Plasma Concentrations: 1.60 ng/mL and 9.65 ng/mL and 2.44 ng/mL and 2.00 ng/mL and 9.25 ng/mL and 3.64 ng/mL and 13.11 ng/mL and 7.98 ng/mL
Time 144.5 h, individual subjects
  Blood Plasma Concentrations: 11.63 ng/mL and 14.52 ng/mL and 25.23 ng/mL and 2.01 ng/mL and 40.90 ng/mL and 21.98 ng/mL and 5.69 ng/mL and 16.93 ng/mL and 56.28 ng/mL
Time 144.5 h, mean
  Blood Plasma Concentrations: 21.69 ng/mL
Time 145.0 h, individual subjects
  Blood Plasma Concentrations: 41.51 ng/mL and 24.58 ng/mL and 72.25 ng/mL and 12.58 ng/mL and 46.27 ng/mL and 62.96 ng/mL and 26.49 ng/mL and 113.90 ng/mL and 103.20 ng/mL
Time 145.0 h, mean
  Blood Plasma Concentrations: 55.97 ng/mL
Time 145.5 h, individual subjects
  Blood Plasma Concentrations: 65.51 ng/mL and 32.58 ng/mL and 63.27 ng/mL and 35.49 ng/mL and 39.01 ng/mL and 55.57 ng/mL and 63.87 ng/mL and 129.20 ng/mL and 127.00 ng/mL
Time 146.0 h, individual subjects
  Blood Plasma Concentrations: 54.34 ng/mL and 45.40 ng/mL and 56.03 ng/mL and 42.13 ng/mL and 30.68 ng/mL and 62.78 ng/mL and 62.92 ng/mL and 106.10 ng/mL and 113.80 ng/mL
Time 147.0 h, individual subjects
  Blood Plasma Concentrations: 52.40 ng/mL and 51.86 ng/mL and 33.38 ng/mL and 35.86 ng/mL and 17.49 ng/mL and 47.15 ng/mL and 53.17 ng/mL and 88.84 ng/mL and 61.25 ng/mL
Time 147.0 h, mean
  Blood Plasma Concentrations: 49.04 ng/mL
Time 148.0 h, individual subjects
  Blood Plasma Concentrations: 30.19 ng/mL and 35.37 ng/mL and 15.51 ng/mL and 17.49 ng/mL and 10.60 ng/mL and 30.50 ng/mL and 36.46 ng/mL and 72.43 ng/mL and 50.08 ng/mL
Time 148.0 h, mean
  Blood Plasma Concentrations: 33.18 ng/mL
Time 150.0 h, individual subjects
  Blood Plasma Concentrations: 11.08 ng/mL and 18.88 ng/mL and 9.47 ng/mL and 10.20 ng/mL and 8.31 ng/mL and 11.39 ng/mL and 19.22 ng/mL and 57.30 ng/mL and 20.36 ng/mL
Time 150.0 h, mean
  Blood Plasma Concentrations: 18.47 ng/mL
Time 152.0 h, individual subjects
  Blood Plasma Concentrations: 8.40 ng/mL and 15.18 ng/mL and 7.79 ng/mL and 9.68 ng/mL and 7.43 ng/mL and 9.77 ng/mL and 14.50 ng/mL and 42.35 ng/mL and 16.57 ng/mL

From patent US20110319464A1, “METHODS FOR TREATING BENIGN PROSTATIC HYPERPLASIA” (KISSEI PHARMACEUTICAL CO., LTD., priority 2007, published 2011)
